Measured affinities in a library of Ab-14 light chain variants

Data: MIT Lincoln Laboratory AlphaSeq set, Li et al. 2023, doi:10.1038/s41467-023-39022-2, as distributed in FLAb.

All variants were tested on one target, the spike HR2 peptide PDVDLGDISGINAS (SARS-CoV-2).

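The starting antibody came from a phage panning campaign against this peptide. The variants were designed computationally from a first round of random CDR variants and then made and measured. Group labels follow the data file (Ctrl: baseline library sampled from a position-specific scoring matrix, with some repeated check sequences; GP: Gaussian process model; HC: hill climbing; Gen: genetic algorithm; Gibbs: Gibbs sampling; a sequence that several methods proposed may carry one label only). In AlphaSeq, yeast of one mating type display the scFv and yeast of the other type display the target. Pairs that bind mate more often; barcode pairs of the diploids are counted by sequencing. The ratio of observed to expected reads was calibrated, replicate by replicate, on BCL2-family standards whose Kd was known from biolayer interferometry. There are six technical replicates.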

Parent scFv Ab-14: VH joined to VL by a (GGGGS)3 linker. Changes lie in the light chain CDRs alone.
VH: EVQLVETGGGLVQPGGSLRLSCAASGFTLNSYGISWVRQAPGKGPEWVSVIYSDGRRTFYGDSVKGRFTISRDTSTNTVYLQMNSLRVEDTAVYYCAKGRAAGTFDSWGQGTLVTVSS
VL: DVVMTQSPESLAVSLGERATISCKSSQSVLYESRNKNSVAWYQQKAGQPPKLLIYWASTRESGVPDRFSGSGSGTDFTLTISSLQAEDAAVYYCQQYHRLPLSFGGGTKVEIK

Positions count from residue 1 of the parent VL; S25V puts V in place of S. Variants here have at most six changes. Values are apparent Kd, the geometric mean of the replicates that gave a signal; lower means stronger binding. An entry "nd" has no value in the source: the pair was not observed among the diploids in any replicate. This suggests poor binding but is not conclusive. The list is sorted by this average, lowest first, undetected variants last. A sequence measured in both rounds can read differently, since the two assays cover different ranges. Empty control strains, which show no peptide, gave a signal in 4% of pairings with all light chain designs; the median was 430 nM and 95% of these signals were weaker than 38 nM. No background was subtracted. The control count says in how many pairings with the empty strains this scFv gave a signal. Of ten entries with the parent sequence, four were seen in most replicates (averages 2.2 nM to 240 nM), three in one and three in none, so single entries are noisy. The authors averaged sequences with at least three values out of six and counted those with two or fewer as poor binders.

With S25V+S26R+V29T+W56E [GP_HC] the result was 370 pM (6 of 6 replicates; controls 0 of 18).
With S25L+S26E+V29F+W56N+E61M [GP_Gen] the result was 390 pM (6 of 6 replicates; controls 2 of 18).
With S25C+Q27W+Y31F+W56D [GP_HC] the result was 550 pM (6 of 6 replicates; controls 0 of 18).
With S25L+S28Q+W56N+T59Q [GP_Gen] the result was 600 pM (6 of 6 replicates; controls 0 of 18).
With S25L+Q27N+W56E [GP_Gen] the result was 610 pM (6 of 6 replicates; controls 0 of 18).
With S25L+S26Q+V29E+W56Q [GP_Gen] the result was 650 pM (6 of 6 replicates; controls 0 of 18).
With S26G+S28G+L30D+K36W+W56G [GP_HC] the result was 660 pM (6 of 6 replicates; controls 0 of 18).
With S25I+E32P [Ctrl] the result was 670 pM (6 of 6 replicates; controls 1 of 18).
With S25L+V29M+S38A+W56N [GP_Gen] the result was 690 pM (6 of 6 replicates; controls 2 of 18).
With S25V+V29H+S33E+S38N+W56Q+T59D [GP_Gibbs] the result was 690 pM (6 of 6 replicates; controls 1 of 18).
With R34D+W56G [Ctrl] the result was 760 pM (6 of 6 replicates; controls 3 of 18).
With S25L+S26E+V29Q+W56H [GP_Gen] the result was 780 pM (6 of 6 replicates; controls 0 of 18).
With S25V+V29F+S33E+W56N [GP_Gen] the result was 890 pM (6 of 6 replicates; controls 2 of 18).
With S25L+S26Q+V29W+S38A+W56N [GP_Gen] the result was 890 pM (6 of 6 replicates; controls 0 of 18).
With V29M+W56D [Ctrl] the result was 940 pM (6 of 6 replicates; controls 0 of 18).
With S25V+S26Q+V29N+W56N [GP_Gen] the result was 990 pM (6 of 6 replicates; controls 1 of 18).
With S28V+V29N+W56G [GP_HC] the result was 1.0 nM (6 of 6 replicates; controls 1 of 18).
With S25I+S28A+V29Y+W56Q+T59H+S62Q [GP_Gibbs] the result was 1.0 nM (6 of 6 replicates; controls 0 of 18).
With S25L+Q27N+V29T+N35Q+W56N [GP_HC] the result was 1.1 nM (6 of 6 replicates; controls 0 of 18).
With S25L+S26Q+W56N+E61Y [GP_Gen] the result was 1.1 nM (6 of 6 replicates; controls 5 of 18).
With Q27I+S28G+V29Y+W56A [GP_HC] the result was 1.2 nM (6 of 6 replicates; controls 0 of 18).
With V29E+L30D+W56N [GP_Gen] the result was 1.3 nM (6 of 6 replicates; controls 2 of 18).
With S25L+Q27F+W56G [GP_Gen] the result was 1.4 nM (6 of 6 replicates; controls 0 of 18).
With V29E+K36V+W56G+E61D [GP_HC] the result was 1.5 nM (6 of 6 replicates; controls 2 of 18).
With S26Y+Q27I+V29Y+W56E [GP_HC] the result was 1.7 nM (6 of 6 replicates; controls 3 of 18).
With S25L+V29H+S38N+W56A [GP_Gen] the result was 1.7 nM (6 of 6 replicates; controls 1 of 18).
With S25I+V29E+W56N+T59Q+E61M [GP_Gen] the result was 1.8 nM (6 of 6 replicates; controls 0 of 18).
With S26M+L30Q+Y31G+S33D+W56E+E61C [GP_Gibbs] the result was 2.6 nM (6 of 6 replicates; controls 1 of 18).
With S25L+S26R+V29T+L30K+K36Q+W56N [GP_HC] the result was 4.4 nM (6 of 6 replicates; controls 1 of 18).
With S26Q+N35D+W56H+S62D [GP_HC] the result was 5.4 nM (6 of 6 replicates; controls 0 of 18).
With S25M+A57S+H98C [Ctrl] the result was 13 nM (6 of 6 replicates; controls 1 of 18).
With S25L+S103W [Ctrl] the result was 22 nM (6 of 6 replicates; controls 0 of 18).
With S25A+Y31G+S38N [Ctrl] the result was 25 nM (6 of 6 replicates; controls 1 of 18).
With N35W+K36G+W56E+S62V [Ctrl] the result was 32 nM (6 of 6 replicates; controls 0 of 18).
With Y31T+K36H+W56Y+R99I [Ctrl] the result was 34 nM (6 of 6 replicates; controls 3 of 18).
With Q27I+V29Y+R34P+W56Q [GP_HC] the result was 56 nM (6 of 6 replicates; controls 1 of 18).
With W56A+R99D [Ctrl] the result was 68 nM (5 of 6 replicates; controls 0 of 18).
With Y31V+S33Q+R34Y+W56G+L102E [Ctrl] the result was 140 nM (1 of 6 replicates; controls 0 of 18).
With S33Y+E61A [Ctrl] the result was 150 nM (4 of 6 replicates; controls 1 of 18).
With Y31W+K36M [Ctrl] the result was 260 nM (4 of 6 replicates; controls 1 of 18).
With V29E+L30F [Ctrl] the result was 310 nM (4 of 6 replicates; controls 0 of 18).
With S25A+Q27F+W56G+A57G+R60N [Ctrl] the result was 760 nM (4 of 6 replicates; controls 0 of 18).
With S25C+V29H+W56R+L100P [Ctrl] the result was 1.9 µM (1 of 6 replicates; controls 1 of 18).
With K24A+S28E+S58Y [Ctrl] the result was nd (0 of 6 replicates; controls 0 of 18).
With E32F+W56H+S62Y [Ctrl] the result was nd (0 of 6 replicates; controls 0 of 18).
With K24H+Q27P+W56N+S62Q+S103Q [GP_HC] the result was nd (0 of 6 replicates; controls 0 of 18).

Excerpt, the first 5 entries:

changes,group,apparent Kd,detected,signal with controls
S25V+S26R+V29T+W56E,GP_HC,370 pM,6/6,0/18
S25L+S26E+V29F+W56N+E61M,GP_Gen,390 pM,6/6,2/18
S25C+Q27W+Y31F+W56D,GP_HC,550 pM,6/6,0/18
S25L+S28Q+W56N+T59Q,GP_Gen,600 pM,6/6,0/18
S25L+Q27N+W56E,GP_Gen,610 pM,6/6,0/18